From patent US11331351B2, “Bacillus strains improving health and performance of production animals” (priority 2015, dated 2022) come the findings set out here.

The assay deals with S. aureus ATCC 29213. In words: microbe, parasite or virus in culture. To be noted: Staphylococcus aureus.

≈ marks a conversion by molar mass, not a printed value. Like-named read-outs stand apart in the source and are kept apart here.

Consider `O=C(N[C@H](CO)[C@H](O)c1ccc([N+](=O)[O-])cc1)C(Cl)Cl` [Chloramphenicol], for which the MIC is, setting by setting: (ATCC29213, read-out: MIC 1) 8 to 16 µg/mL (≈ 24.8 to 49.5 µM); (ATCC29213, read-out: MIC 3) 8 µg/mL (≈ 24.8 µM).
Take `CC[C@H]1OC(=O)[C@H](C)[C@@H](O[C@H]2C[C@@](C)(OC)[C@@H](O)[C@H](C)O2)[C@H](C)[C@@H](O[C@@H]2O[C@H](C)C[C@H](N(C)C)[C@H]2O)[C@](C)(O)C[C@@H](C)C(=O)[C@H](C)[C@@H](O)[C@]1(C)O` [Erythromycin]: the MIC by setting is: (ATCC29213, read-out: MIC 1) 0.5 µg/mL (≈ 0.681 µM); (ATCC29213, read-out: MIC 2) 0.5 µg/mL (≈ 0.681 µM); (ATCC29213, read-out: MIC 3) 0.5 µg/mL (≈ 0.681 µM); (ATCC29213, read-out: MIC 4) 0.5 µg/mL (≈ 0.681 µM); (ATCC29213, read-out: MIC 5) 0.5 µg/mL (≈ 0.681 µM).
In the case of `NC[C@H]1O[C@H](O[C@H]2[C@H](O)[C@@H](O[C@H]3O[C@H](CO)[C@@H](O)[C@H](N)[C@H]3O)[C@H](N)C[C@@H]2N)[C@H](O)[C@@H](O)[C@@H]1O` [Kanamycin], the MIC is, setting by setting: (ATCC29213, read-out: MIC 1) 4 µg/mL (≈ 8.26 µM); (ATCC29213, read-out: MIC 2) 4 µg/mL (≈ 8.26 µM); (ATCC29213, read-out: MIC 3) 4 µg/mL (≈ 8.26 µM); (ATCC29213, read-out: MIC 4) 4 µg/mL (≈ 8.26 µM); (ATCC29213, read-out: MIC 5) 4 µg/mL (≈ 8.26 µM).
For the compound `[H]/N=C(/N)N[C@H]1[C@H](O)[C@@H](O)[C@H](O[C@@H]2O[C@@H](C)[C@](O)(C=O)[C@H]2O[C@@H]2O[C@@H](CO)[C@H](O)[C@@H](O)[C@@H]2NC)[C@@H](N/C(N)=N\[H])[C@@H]1O` [Streptomycin], the MIC stood at 8 µg/mL (≈ 13.8 µM) (ATCC29213, read-out: MIC 1); 8 µg/mL (≈ 13.8 µM) (ATCC29213, read-out: MIC 2); 8 µg/mL (≈ 13.8 µM) (ATCC29213, read-out: MIC 3); 8 µg/mL (≈ 13.8 µM) (ATCC29213, read-out: MIC 5).
Turning to `CN(C)[C@@H]1C(O)=C(C(N)=O)C(=O)[C@@]2(O)C(O)=C3C(=O)c4c(O)cccc4[C@@](C)(O)[C@H]3C[C@@H]12` [Tetracycline], the MIC reads like this: (ATCC29213, read-out: MIC 1) 0.5 µg/mL (≈ 1.13 µM); (ATCC29213, read-out: MIC 2) 1 µg/mL (≈ 2.25 µM); (ATCC29213, read-out: MIC 3) 1 µg/mL (≈ 2.25 µM); (ATCC29213, read-out: MIC 4) 0.5 µg/mL (≈ 1.13 µM); (ATCC29213, read-out: MIC 5) 0.5 µg/mL (≈ 1.13 µM).
Turning to `CN[C@H](CC(C)C)C(=O)N[C@H]1C(=O)N[C@@H](CC(N)=O)C(=O)N[C@H]2C(=O)N[C@H]3C(=O)N[C@H](C(=O)N[C@H](C(=O)O)c4cc(O)cc(O)c4-c4cc3ccc4O)[C@H](O)c3ccc(c(Cl)c3)Oc3cc2cc(c3O[C@@H]2O[C@H](CO)[C@@H](O)[C@H](O)[C@H]2O[C@H]2C[C@](C)(N)[C@H](O)[C@H](C)O2)Oc2ccc(cc2Cl)[C@H]1O` [Vancomycin], the MIC worked out at 0.5 µg/mL (≈ 0.345 µM) (ATCC29213, read-out: MIC 1); 1 µg/mL (≈ 0.69 µM) (ATCC29213, read-out: MIC 2); 1 µg/mL (≈ 0.69 µM) (ATCC29213, read-out: MIC 3); 1 µg/mL (≈ 0.69 µM) (ATCC29213, read-out: MIC 4); 1 µg/mL (≈ 0.69 µM) (ATCC29213, read-out: MIC 5).
